Target: rat VMAT2 (Rattus norvegicus, UniProt Q01827)
Settings: Fig. 2a source data, 25 μM compound

Sequences of proteins named here, by UniProt entry; tags and fusion partners are left off.
UniProt Q01827, whole entry: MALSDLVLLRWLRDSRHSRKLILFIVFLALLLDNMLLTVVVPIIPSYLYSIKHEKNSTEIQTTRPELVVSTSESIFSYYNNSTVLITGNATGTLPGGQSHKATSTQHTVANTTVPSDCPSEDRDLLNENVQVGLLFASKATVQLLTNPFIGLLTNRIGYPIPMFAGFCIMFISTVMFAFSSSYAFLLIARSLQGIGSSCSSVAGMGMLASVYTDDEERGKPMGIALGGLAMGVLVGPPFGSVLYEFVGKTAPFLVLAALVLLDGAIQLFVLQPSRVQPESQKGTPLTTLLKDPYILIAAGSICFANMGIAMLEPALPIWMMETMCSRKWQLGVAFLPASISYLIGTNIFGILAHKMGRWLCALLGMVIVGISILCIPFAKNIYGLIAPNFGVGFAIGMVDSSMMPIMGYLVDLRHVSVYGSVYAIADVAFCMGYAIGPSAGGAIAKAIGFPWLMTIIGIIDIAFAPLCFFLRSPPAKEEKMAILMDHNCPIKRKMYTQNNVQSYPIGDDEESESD

## COC(=O)[C@H]1[C@H]2C[C@@H]3c4[nH]c5cc(OC)ccc5c4CCN3C[C@H]2C[C@@H](OC(=O)c2cc(OC)c(OC)c(OC)c2)[C@@H]1OC [Reserpine]
  VMAT2-specific FFN206 uptake relative to DMSO (=1), replicate samples: 0.08208

Source: paper PMC9684503 (Communications Biology, 2022)
